The values that follow come from ChEMBL document CHEMBL1128295 (J Med Chem, 1995).

Assay [1] addresses Histamine H1 receptor (Cavia porcellus) (UniProt P31389). Nature of the assay: Contractile effect on isolated guinea pig ileal segments is a measure of H1 (histamine) receptor agonistic activity relative to histamine. Type of assay: functional.
The target is the same in assay [2]. In words: Contractile effects on guinea pig aorta as histamine H1 receptor agonism. Type of assay: functional, tissue-based. A digest of the protocol: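 Endothelium-denuded 4–6 mm guinea pig thoracic aortic rings, isometric (preload 10 mN), modified Krebs-Henseleit, 37 °C, 95% O2/5% CO2. […] Cumulative curves with 30 μM corticosterone, 100 μM cimetidine, 0.1 μM (R,S)-propranolol and phentolamine present.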

For assay [3] the target is unchanged. In words: The H1 receptor-mediated nature of the ileum contractionhas been verified by competition experiments with the H1 receptor antagonist mepyramine. Type of assay: functional, tissue-based.
For assay [4] the target is unchanged. In words: Contractile effect on isolated guinea pig ileal segments by H1 (histamine) receptor agonism. Type of assay: functional.
Assay [5] deals with Histamine H1 receptor (Mus musculus). In words: In vivo binding of H1 receptor Agonists measured by binding of [3H]mepyramine to Mouse cerebral cortex at the dosage of ( 3 mg/kg(no. of mice treated= 5 ). The following applies: at 3 mg/kg.
Assay [6] deals with Histamine H1 receptor (Mus musculus) (UniProt P70174). In words: In vivo binding of H1 receptor Agonists measured by binding of [3H]mepyramine to Mouse cerebral cortex at the dosage of ( 10 mg/kg(no. of mice treated=5 ). To be noted: at 10 mg/kg.
The target is the same in assay [7]. Nature of the assay: In vivo binding of H1 receptor Agonists measured by binding of [3H]mepyramine to Mouse cerebral cortex at the dosage of ( 30 mg/kg(no. of mice treated= 5 ). To be noted: at 30 mg/kg.
Assay [8] has the same target. Nature of the assay: In vivo binding of H1 receptor Agonists measured by binding of [3H]mepyramine to Mouse cerebral cortex at the dosage of ( 100 mg/kg(no. of mice treated= 4 ). To be noted: at 100 mg/kg.

With `NCCc1c[nH]c(-c2cccc(Br)c2)n1`, the Relative activity in assay [1] worked out at 112%. Further, the figures for the pKb in assay [2] and in assay [3] were 8.9 and 9.17, respectively. This molecule also had a pD2 in assay [4] of 6.75. Further, the Control in assay [5] stood at 106%; in assay [6] it was 98%; in assay [7], 98%; in assay [8], 98%.
